The values below are quoted from earlier work in US11679103B2, “Multi-targeting agents for Alzheimer's disease therapy” (The Regents of the University of California, priority 2018, dated 2023).

This data set deals with T1, Amyloid β (Homo sapiens, UniProt P05067).
T1 construct: host or cells: AD patients (clinical trials)
The settings on record: cited from earlier work.

Consider “Bapineuzumab: anti-amyloid monoclonal antibody”, for which the “Aβ plaque load measured by PET imaging, before vs after antibody treatment” value (large clinical trials) is reported as “did not change significantly”. The “Outcome (clinical)” value (mild to moderate AD subjects) is “Did not improve”.
